Results: patent US20070053869A1, “Formulation and method for enhancement of gastrointestinal absorption of pharmaceutical agents” (priority 2005, published 2007)

By UniProt entry, the sequences of proteins in these tests, tags left out. Where a name states a change or a piece, a line headed by the entry shows the natural chain unless it says otherwise.
UniProt P08183, whole entry: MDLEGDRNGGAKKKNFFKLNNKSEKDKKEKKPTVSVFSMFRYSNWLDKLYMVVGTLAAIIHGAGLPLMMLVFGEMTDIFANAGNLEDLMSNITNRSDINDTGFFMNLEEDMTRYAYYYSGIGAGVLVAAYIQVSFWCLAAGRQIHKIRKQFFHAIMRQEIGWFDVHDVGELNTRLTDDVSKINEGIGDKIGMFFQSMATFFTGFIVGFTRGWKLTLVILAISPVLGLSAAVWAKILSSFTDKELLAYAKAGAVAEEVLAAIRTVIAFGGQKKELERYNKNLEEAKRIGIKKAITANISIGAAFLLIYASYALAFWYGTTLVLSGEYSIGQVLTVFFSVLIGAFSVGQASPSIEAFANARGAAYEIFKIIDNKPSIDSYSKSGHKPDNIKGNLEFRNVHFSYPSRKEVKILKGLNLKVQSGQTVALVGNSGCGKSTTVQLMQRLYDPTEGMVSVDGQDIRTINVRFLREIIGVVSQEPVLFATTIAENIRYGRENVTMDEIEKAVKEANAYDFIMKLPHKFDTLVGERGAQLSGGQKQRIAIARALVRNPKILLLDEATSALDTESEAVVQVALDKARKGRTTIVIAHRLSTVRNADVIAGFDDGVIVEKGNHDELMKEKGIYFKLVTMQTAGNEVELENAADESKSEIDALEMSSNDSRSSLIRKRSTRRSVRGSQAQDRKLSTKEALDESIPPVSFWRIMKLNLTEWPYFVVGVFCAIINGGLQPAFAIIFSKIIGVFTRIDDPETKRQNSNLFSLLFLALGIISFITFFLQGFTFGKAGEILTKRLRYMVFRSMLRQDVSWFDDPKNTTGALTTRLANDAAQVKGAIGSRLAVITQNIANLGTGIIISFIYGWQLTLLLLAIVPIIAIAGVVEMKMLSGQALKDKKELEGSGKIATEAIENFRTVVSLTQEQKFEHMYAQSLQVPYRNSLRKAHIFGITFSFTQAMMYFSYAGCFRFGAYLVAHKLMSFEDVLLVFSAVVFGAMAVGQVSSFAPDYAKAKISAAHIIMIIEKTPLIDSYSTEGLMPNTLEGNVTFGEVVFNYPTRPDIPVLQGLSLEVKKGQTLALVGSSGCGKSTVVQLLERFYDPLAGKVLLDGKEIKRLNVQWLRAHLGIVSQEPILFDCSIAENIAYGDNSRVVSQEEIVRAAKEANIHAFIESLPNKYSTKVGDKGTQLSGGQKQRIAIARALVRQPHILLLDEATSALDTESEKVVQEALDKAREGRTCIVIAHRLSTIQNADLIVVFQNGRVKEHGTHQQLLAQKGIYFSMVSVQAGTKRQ
UniProt Q9UNQ0: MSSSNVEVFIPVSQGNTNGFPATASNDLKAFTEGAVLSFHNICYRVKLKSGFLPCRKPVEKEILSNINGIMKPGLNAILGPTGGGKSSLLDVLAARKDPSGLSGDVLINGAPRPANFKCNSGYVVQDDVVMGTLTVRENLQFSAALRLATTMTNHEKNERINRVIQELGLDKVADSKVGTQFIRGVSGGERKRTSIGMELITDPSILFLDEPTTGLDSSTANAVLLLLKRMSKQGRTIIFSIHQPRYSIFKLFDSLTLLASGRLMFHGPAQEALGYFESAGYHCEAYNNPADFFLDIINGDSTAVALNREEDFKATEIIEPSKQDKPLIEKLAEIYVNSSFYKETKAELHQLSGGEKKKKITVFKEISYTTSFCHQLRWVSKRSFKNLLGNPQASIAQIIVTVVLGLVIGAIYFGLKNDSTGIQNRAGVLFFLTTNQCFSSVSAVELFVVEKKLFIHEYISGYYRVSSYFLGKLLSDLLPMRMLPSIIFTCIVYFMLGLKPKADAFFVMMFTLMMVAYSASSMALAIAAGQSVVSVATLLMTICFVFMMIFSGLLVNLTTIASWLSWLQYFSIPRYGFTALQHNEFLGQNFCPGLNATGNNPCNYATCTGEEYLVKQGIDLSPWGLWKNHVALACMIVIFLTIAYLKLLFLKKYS

Legend:
P-gp = P-gp (Homo sapiens, UniProt P08183)
Excerpt: Moreover, to investigate the inhibitory effect of excipients on P-gp, we also performed an intracellular accumulation study for 15 excipients using P-gp MDCK-II cells. Mitoxantrone was again used as the substrate.

ABCG2 = ABCG2 (Homo sapiens, UniProt Q9UNQ0)
Procedure: Methods: For constructing MDCK-II cells expressing human ABCG2 or green fluorescent protein (GFP), MDCK-II cells were infected with recombinant adenoviruses containing human ABCG2 or GFP cDNA at 48 h prior to the experiments. ABCG2 or GFP-transduced cells were preincubated in prewarmed transport buffer for 15 min. Subsequently, [^3H]-mitoxantrone (MTX) was added in transport buffer to apical compartments. Accumulation of radiolabeled substrates was allowed for 2 h at 37° C. with or without an appropriate concentration of pharmaceutical excipients, 20 μM of GF120918 or 5 μM of PSC833. The reactions were arrested by washing cells with ice-cold transport buffer. Cells were solubilized and then the lysates were transferred to a liquid scintillation counter for measurement of radioactivity.
To abolish the influence of endogenous P-gp, PSC833 (P-gp inhibitor) was added during the incubation for 2 h, except that in the samples treated with GF120918 (a shared ABCG2 and P-gp inhibitor) no PSC833 was added.
The inhibitory effect of excipients on ABCG2 was further characterized in an intracellular accumulation study. MDCK-II cells overexpressing ABCG2 (BCRP MDCK-II) and, as controls, MDCK-II cells overexpressing green fluorescence protein (GFP) (GFP MDCK-II) were prepared. Mitoxantrone was used as the substrate. Intracellular mitoxantrone accumulation in the presence or absence of excipients was determined.
To discover the excipients that can inhibit ABCG2, we performed an intracellular accumulation study using BCRP MDCK-II and GFP MDCK-II cells in the absence or presence of excipients. Mitoxantrone was used as the substrate. To abolish the effect of endogenous P-gp, this experiment was performed in the presence of PSC833. […] All of the excipients were used below their cmc, because above their cmc, excipients form micelles that can interact with the substrate, and as a consequence the effective concentration of mitoxantrone in the experimental medium can decrease.

Substance	mitoxantrone accumulation in P-gp MDCK-II cells (in words) (P-gp)	inhibition of ABCG2 in the intact cell assay (ABCG2)
Polyoxyethylene 40 stearate [Polyoxyl 40 stearate]	increased	did not inhibit ABCG2
Polyoxyethyleneglyceroltrihydroxystearate [Polyoxyl 40 hydrogenated castor oil]	–	did not inhibit ABCG2
D-α-tocopheryl polyethylene glycol 1000 succinate [Vitamin E TPGS]	increased	did not inhibit ABCG2
